The assay concerns the target recombinant human enteropeptidase (Homo sapiens (Human), UniProt P98073). The assay is described as follows: Measurement of enteropeptidase inhibitory activity. It is filed as biochemical. The following applies: Dixon plot. The procedure:
Measurement of Enteropeptidase Inhibitory Activity
Using a 96 well plate (#3915, Costar), a test compound (25 μL), 400 mM Tris-HCl buffer (pH 8.0, 25 μL) and 0.5 mg/mL fluorescence enzyme substrate (Gly-Asp-Asp-Asp-Asp-Lys-β-Naphtylamide, 25 μL) were mixed, and recombinant human enteropeptidase (R&D Systems, Inc., 25 μL) was added. Using a fluorescence plate reader fmax (Molecular Devices, Inc.), the reaction rate was measured from the time-course changes at excitation wavelength 320 nm and fluorescence wavelength 405 nm. The Ki value was calculated from the concentration of the test compound, reciprocal of reaction rate, and Km value of the enzyme substrate, and by using Dixon plot.

Protein sequences, listed by entry. Tags and fused reporters are not part of them. Lines headed by an entry give the natural chain unless they say otherwise; changes in a name come on top.
UniProt P98073: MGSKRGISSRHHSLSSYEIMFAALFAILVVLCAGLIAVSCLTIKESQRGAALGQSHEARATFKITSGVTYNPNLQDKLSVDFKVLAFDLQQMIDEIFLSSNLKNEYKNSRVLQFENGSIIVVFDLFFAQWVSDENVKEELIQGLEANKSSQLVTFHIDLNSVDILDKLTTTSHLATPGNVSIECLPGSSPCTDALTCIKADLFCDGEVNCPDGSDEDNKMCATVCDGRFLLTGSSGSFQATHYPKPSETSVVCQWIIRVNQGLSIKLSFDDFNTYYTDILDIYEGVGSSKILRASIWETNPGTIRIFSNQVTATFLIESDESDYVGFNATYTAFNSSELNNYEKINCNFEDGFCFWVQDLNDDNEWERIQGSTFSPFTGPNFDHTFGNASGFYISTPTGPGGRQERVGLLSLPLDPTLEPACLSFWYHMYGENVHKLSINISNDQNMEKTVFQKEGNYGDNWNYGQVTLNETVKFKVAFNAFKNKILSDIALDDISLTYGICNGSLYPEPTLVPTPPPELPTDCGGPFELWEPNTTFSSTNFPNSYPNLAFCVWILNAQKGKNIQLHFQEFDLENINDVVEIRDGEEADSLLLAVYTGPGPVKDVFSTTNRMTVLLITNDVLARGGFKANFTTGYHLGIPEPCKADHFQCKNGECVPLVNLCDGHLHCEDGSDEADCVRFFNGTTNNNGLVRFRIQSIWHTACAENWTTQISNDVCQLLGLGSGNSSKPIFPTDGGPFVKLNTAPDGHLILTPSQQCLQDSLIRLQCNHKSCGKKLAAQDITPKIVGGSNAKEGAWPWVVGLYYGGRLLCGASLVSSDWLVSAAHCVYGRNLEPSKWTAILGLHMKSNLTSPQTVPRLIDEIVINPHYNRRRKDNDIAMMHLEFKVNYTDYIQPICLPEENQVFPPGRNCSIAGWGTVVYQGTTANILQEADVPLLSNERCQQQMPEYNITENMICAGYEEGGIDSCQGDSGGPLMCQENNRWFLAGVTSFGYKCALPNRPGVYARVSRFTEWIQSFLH

Our source for the Ki values is patent US8609715B2, “Heteroarylcarboxylic acid ester derivative” (Ajinomoto Co., Inc., priority 2009, dated 2013).

In the case of `CC(Cc1ccc(C(=O)Oc2ccc(C(=N)N)cc2)s1)C(=O)N[C@@H](CC(=O)O)C(=O)O` (stereo partly shown) [Compound B-18], the Ki (in general, a measure of affinity in units of concentration, obtained from inhibition or displacement) was found to be 1.36 nM.
